From US6562588B2, “Sialidase and recombinant cell lines” (Genentech, Inc., priority 1993, dated 2003)
Read-outs that look alike come from different tables or passages of the source.

Protein sequences, listed by entry. Tags and fused reporters are not part of them. Lines headed by an entry give the natural chain unless they say otherwise; changes in a name come on top.
UniProt Q64393: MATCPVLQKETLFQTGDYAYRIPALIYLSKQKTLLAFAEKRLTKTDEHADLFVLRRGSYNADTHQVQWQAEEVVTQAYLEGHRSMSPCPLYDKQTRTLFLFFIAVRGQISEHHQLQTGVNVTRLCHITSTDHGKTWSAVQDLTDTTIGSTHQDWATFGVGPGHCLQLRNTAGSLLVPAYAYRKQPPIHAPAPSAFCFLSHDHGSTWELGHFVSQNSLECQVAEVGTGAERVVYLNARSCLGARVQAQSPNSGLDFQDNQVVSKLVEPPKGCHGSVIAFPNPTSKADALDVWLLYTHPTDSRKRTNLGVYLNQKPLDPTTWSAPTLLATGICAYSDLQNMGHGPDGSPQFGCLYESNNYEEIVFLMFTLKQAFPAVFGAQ

Target: CHO cell sialidase (Cricetulus griseus, UniProt Q64393)
Test: biochemical

Ki [µM]	Structure (SMILES)	Ki (Ki, CHO cell sialidase (Cytosol ?)) [µM]
	CC(=O)N[C@H]1[C@H]([C@H](O)[C@H](O)CN=[N+]=[N-])OC(C(=O)O)=C[C@@H]1O [9-Azido Neu5Ac2en, 5-acetamido-2,6-anhydro-9-azido-3,5,9-trideoxy-D-glycero-D-galacto-non-2-enonic acid]	45
300	CC(=O)N[C@H]1[C@H]([C@H](O)[C@H](O)CSc2ccc(N=[N+]=[N-])cc2[N+](=O)[O-])OC(C(=O)O)=C[C@@H]1O [9-S-PANP Neu5Ac2en, 9-S-(4′-azido-2′-nitro-phenyl)-5-acetamido-2,6 anhydro-9-thio-2,5,9-trideoxy-D-glycero-D-galacto-non-2-enonic acid]	
